Screening data as filed in PubChem.
Rows were chosen to be rich in hits. Some 1.8% of all compounds tested hit in one or more screens of this group.
Cneo AK release = Cryptococcus neoformans lysis via adenylate kinase release | C. neoformans lysis, adenylate kinase release luminescence, 4 h; normalised: neutral wells 0, clomiphene wells 100 | lysis activity, % at 15 µM | actives 0.2% (n = 360,000) | AID 651654;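 active = mean lysis activity across replicates of at least 80%, whatever share of replicates individually reach that level; inactive = mean lysis activity below 80%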
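Material – Cryptococcus neoformans yeast cells · Quantity – 5 × 10^6 yeast cells/mL · Buffer or medium – YPD medium · Compound – single dose · Timing – 4 h static compound exposure, 37 °C, read 1 h post-reagent · Signal – adenylate kinase release luminescence · Read-out basis – lysis from increased AK signal · Benchmarks – Clomiphene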
DENV2 CPE rescue = DENV2-induced cell death inhibition; DENV2-infected cells, cytopathic effect rescue, plate reader; actives 1.7% (n = 350,000); CPE inhibition, % at 9.99 µM; in the data active = CPE inhibition above about 20%, passing the limit was not always enough; inconclusive = no clear call, values can overlap the other calls; tested in BHK-21 cells
Yeast UUG start = yeast start codon fidelity modulation | S. cerevisiae UUG-firefly luciferase reporter, luminescence/redox ratio | activity score, % at 18.7 µM | hit rate 0.13% among 350,000 | AID 602363;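 active means replicate mean at a twofold rise or more, about +100% in these data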;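 further: firefly luciferase made from a UUG start codon reports start codon fidelity; reporter light over untreated wells divided by growth signal over untreated wells; some hits fall short of that in this replicate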
E-selectin induc = induces E-selectin expression in human endothelial cells; P16581; HUVEC E-selectin immunofluorescence imaging; normalized: neutral wells 0, TNF-alpha wells 100; activation, % at 7.58 µM; actives 0.37% (n = 260,000); AID 686992;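 active = mean E-selectin-positive cell signal at least 10% of the positive control, reached in at least 60% of replicates, without over 20% cell loss; inconclusive = no rule given, readout overlaps actives, possibly toxicity-flagged; inactive = the rest, including those meeting only one limit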
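Assay system: HUVEC, human umbilical vein endothelial cells / Amount: 3,000 HUVEC/well / Controls: TNF-alpha positive control, DMSO neutral control / Compound dosing: single concentration / Medium: EGM-2 over gelatin coat / Evaluation: percent E-selectin-positive cells / Signal: immunofluorescence imaging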
Of the large screens only hits and unclear results are named; the others gave an inactive call.

Cc1noc(C)c1NC(=O)N(C)C[C@H]1Oc2ccc(NC(=O)C3CC3)cc2CC(=O)N([C@@H](C)CO)C[C@H]1C	Cneo AK release 117
Cc1noc(C)c1NC(=O)N(C)C[C@@H]1Oc2ccc(NC(=O)C3CCCCC3)cc2CC(=O)N([C@@H](C)CO)C[C@@H]1C	DENV2 CPE rescue 31
CO[C@H]1CN(C)C(=O)c2cc(NS(=O)(=O)CC(F)(F)F)ccc2OC[C@H](C)N(Cc2ccccn2)C[C@H]1C	none
CO[C@@H]1CN(C)C(=O)c2ccc(NC(=O)NC(C)C)cc2OC[C@@H](C)N(CCC(F)(F)F)C[C@@H]1C	DENV2 CPE rescue 33
CO[C@H]1CN(C)C(=O)c2ccc(NC(=O)NC(C)C)cc2OC[C@H](C)N(CCC(F)(F)F)C[C@H]1C	DENV2 CPE rescue 55
CO[C@@H]1CN(C)C(=O)c2ccc(NC(=O)NC(C)C)cc2OC[C@@H](C)N(CCC(F)(F)F)C[C@H]1C	none
CN1CCN(C(=O)C2=C[C@H](c3ccc(Br)cc3)C[C@H](OCc3ccc(CO)cc3)O2)CC1	none (no result: Yeast UUG start, E-selectin induc)
C[C@H]1CN([C@@H](C)CO)S(=O)(=O)c2ccc(C3=CCCC3)cc2O[C@@H]1CN(C)S(C)(=O)=O	none (no result: Cneo AK release, DENV2 CPE rescue, Yeast UUG start)
C[C@@H]1CCCCO[C@@H](CN(C)Cc2ccc(C(F)(F)F)cc2)[C@H](C)CN([C@H](C)CO)C(=O)c2cc(NC(=O)Cc3ccccc3)ccc2O1	DENV2 CPE rescue 40
C[C@H]1CCCCO[C@H](CN(C)C(=O)Nc2ccc(C(F)(F)F)cc2)[C@@H](C)CN([C@@H](C)CO)C(=O)c2cc(NC(=O)Cc3ccccc3)ccc2O1	none
C[C@@H]1CCCCO[C@@H](CN(C)C(=O)Nc2ccc(C(F)(F)F)cc2)[C@H](C)CN([C@H](C)CO)C(=O)c2cc(NC(=O)Cc3ccccc3)ccc2O1	DENV2 CPE rescue 91
C[C@@H]1CN([C@@H](C)CO)C(=O)c2cc(NC(=O)Nc3ccc(C(F)(F)F)cc3)ccc2O[C@@H](C)CCCCO[C@@H]1CN(C)Cc1ccccc1	DENV2 CPE rescue 127
CC(C)C[C@@H](CNCC(=O)[C@H](Cc1c[nH]c2ccccc12)NC(=O)c1[nH]cnc1C(=O)N[C@H](CN)CC(C)C)NC(=O)c1nc[nH]c1C(=O)N[C@@H](CC(=O)O)C(=O)O	Yeast UUG start 154
CC(C)C[C@@H](CN)NC(=O)c1nc[nH]c1C(=O)N[C@@H](Cc1ccccc1)C(=O)CNC[C@H](C)NC(=O)c1nc[nH]c1C(=O)N[C@@H](CC(=O)O)C(=O)O	none
CC(C)C[C@@H](CNCC(=O)[C@H](CC(C)C)NC(=O)c1[nH]cnc1C(=O)N[C@@H](C)CN)NC(=O)c1nc[nH]c1C(=O)N[C@@H](CC(C)C)C(=O)O	none
CC(C)C[C@@H](CNCC(=O)[C@H](CC(C)C)NC(=O)c1[nH]cnc1C(=O)N[C@@H](C)CN)NC(=O)c1nc[nH]c1C(=O)N[C@@H](CC(=O)O)C(=O)O	DENV2 CPE rescue 87
CC(C)C[C@@H](CNCC(=O)[C@H](Cc1c[nH]c2ccccc12)NC(=O)c1[nH]cnc1C(=O)N[C@@H](C)CN)NC(=O)c1nc[nH]c1C(=O)N[C@@H](C)C(=O)O	Yeast UUG start 141
CC(C)C[C@@H](CNCC(=O)[C@H](Cc1c[nH]c2ccccc12)NC(=O)c1[nH]cnc1C(=O)N[C@@H](C)CN)NC(=O)c1nc[nH]c1C(=O)N[C@@H](CC(=O)O)C(=O)O	Yeast UUG start 154
CC(C)C[C@@H](CNCC(=O)[C@H](Cc1ccccc1)NC(=O)c1[nH]cnc1C(=O)N[C@@H](C)CN)NC(=O)c1nc[nH]c1C(=O)N[C@@H](CC(=O)O)C(=O)O	none
C[C@@H]1CN([C@H](C)CO)C(=O)c2cccc(NS(C)(=O)=O)c2O[C@H]1CN(C)C(=O)NC1CCCCC1	none (no result: E-selectin induc)
C[C@@H]1CN([C@H](C)CO)C(=O)Cc2cc(NC(=O)NC3CCCCC3)ccc2O[C@@H]1CN(C)CC1CCCCC1	none
C/C=C/c1ccc([C@H]2[C@@H](CN(C)C(=O)CC)N(C(=O)NC(C)C)[C@H]2CO)cc1	DENV2 CPE rescue 27
C/C=C/c1ccc([C@@H]2[C@@H](CN(CC)C(=O)CC)N(C(=O)C3CCC3)[C@H]2CO)cc1	DENV2 CPE rescue 25
C/C=C/c1ccc([C@@H]2[C@H](CO)N(C(=O)C3CC3)[C@H]2CN(CC)C(C)=O)cc1	none
CC(C)NC(=O)N(C)C[C@H]1Oc2ccc(NC(=O)c3ccncc3)cc2CC(=O)N([C@@H](C)CO)C[C@@H]1C	DENV2 CPE rescue inconclusive
O=C(NNC(=O)c1ccccc1F)c1ccc(-c2ccccc2Cl)o1	DENV2 CPE rescue 21
